# According to ChEMBL document CHEMBL5042528, “Optimization of 2-Amino-4,6-diarylpyrimidine-5-carbonitriles as Potent and Selective A1 Antagonists” (J Med Chem, 2022):
# What was measured:
# [1] = target: T1, Adenosine receptor A2b (Homo sapiens) (UniProt P29275); assay: Antagonist activity at A2B adenosine receptor (unknown origin); assay type: functional; design: scale not given: the % may be the effect or the level left
# T1 sequence (whole entry): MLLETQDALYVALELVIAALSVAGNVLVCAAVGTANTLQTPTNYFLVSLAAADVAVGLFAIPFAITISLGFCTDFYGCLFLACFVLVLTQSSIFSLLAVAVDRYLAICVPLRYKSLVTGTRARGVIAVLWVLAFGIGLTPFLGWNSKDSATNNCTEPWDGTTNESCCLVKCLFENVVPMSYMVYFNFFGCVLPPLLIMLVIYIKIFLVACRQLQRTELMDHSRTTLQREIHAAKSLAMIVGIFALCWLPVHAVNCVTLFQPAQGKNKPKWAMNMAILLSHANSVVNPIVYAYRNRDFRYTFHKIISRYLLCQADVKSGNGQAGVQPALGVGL
# Adenosine receptor A2a = Adenosine receptor A2a (Homo sapiens, UniProt P29274); assay: Displacement of [3H]SCH-58261 from A2A adenosine receptor (unknown origin) expressed in HEK cell membrane at 1 uM incubated for 60 mins at room temperature by NXT microplate scintillation counter analysis relative to control; assay type: cell membranes
structure (smiles),measurement,setting,value
Nc1nc(-c2ccccc2)cc(-c2ccc3c(c2)OCO3)n1,Activity,[1],7%
same,Activity,Adenosine receptor A2a,1%
